These results are taken from US6043261A, “Pyrrolodino imidines useful as nitric oxide synthase inhibitors” (G. D. Searle & Co., priority 1998, dated 2000).

Assay [1] concerns the target T1, human inducible NOS (hiNOS) (Homo sapiens, UniProt P35228).
T1 construct: made in house; host or cells: insect cells, baculovirus vector
In words: Citrulline Assay for Nitric Oxide Synthase, hiNOS. The assay is classed as biochemical. To be noted: recombinant human inducible NOS, 37° C., 15 minutes. On the procedure:
(§1) Citrulline Assay for Nitric Oxide Synthase
(§2) Nitric oxide synthase activity was measured by monitoring the conversion of L-[2,3-3H]-arginine to L-[2,3-3H]-citrulline (1,2). The cDNA for human inducible NOS (hiNOS) was isolated from a lcDNA library made from RNA extracted from a colon sample from a patient with ulcerative colitis; human endothelial constitutive NOS (hecNOS) was isolated from a lcDNA library made from RNA extracted from human umbilical vein endothelial cells (HUVEC); and human neuronal constitutive NOS (hncNOS) was isolated from a lcDNA library made from RNA extracted from human cerebellum from a cadaver. The recombinant enzymes were expressed in insect cells using a baculovirus vector. Enzyme activity was isolated from cell extracts and partially purified by DEAE-Sepharose chromatography (2). Enzyme and inhibitors were added to give a volume of 50 μL in 50 mM Tris (pH 7.6) and the reaction initiated by the addition of 50 μL of a solution containing 50 mM Tris (pH 7.6), 2.0 mg/mL bovine serum albumin, 2.0 mM DTT, 4.0 mM CaCl2, 20 μM FAD, 100 μM tetrahydrobiopterin, 0.4-2.0 mM NADPH and 60 μM L-arginine containing 0.9 μCi of L-[2,3-3H]-arginine. […] The [3H]-citrulline was separated by chromatography on Dowex 50W X-8 cation exchange resin and radioactivity quantified with a liquid scintillation counter.

In assay [2] the target is T2, human endothelial constitutive NOS (hecNOS) (Homo sapiens, UniProt P29474).
T2 construct: made in house; host or cells: insect cells, baculovirus vector
Description: Citrulline Assay for Nitric Oxide Synthase, hecNOS. It is filed as biochemical. To be noted: recombinant human endothelial constitutive NOS, 37° C., 15 minutes, calmodulin 40-100 nM. As to the method:
as §1, §2

Each structure is given as a SMILES string. Counter-ions that a name gives are not always drawn.

Broadly, the IC50 is the concentration needed to halve the response being measured.

Regarding `NC1=NC(Cc2ccccc2)CCC1` (centres unmarked) [Example 94, 6-(phenylmethyl)piperidin-2-imine, Monohydrochloride], the concentration for half-maximal inhibition (IC50) in assay [1] is 8.6 µM; in assay [2], 40 µM.
